Results published in patent US9695132B2, “Heteroaryl compounds and uses thereof” (Celgene CAR LLC, priority 2013, dated 2017).

Amino acid sequences for entries named in this document (tags omitted). Residues count along the entry.
UniProt P22455, 22-802: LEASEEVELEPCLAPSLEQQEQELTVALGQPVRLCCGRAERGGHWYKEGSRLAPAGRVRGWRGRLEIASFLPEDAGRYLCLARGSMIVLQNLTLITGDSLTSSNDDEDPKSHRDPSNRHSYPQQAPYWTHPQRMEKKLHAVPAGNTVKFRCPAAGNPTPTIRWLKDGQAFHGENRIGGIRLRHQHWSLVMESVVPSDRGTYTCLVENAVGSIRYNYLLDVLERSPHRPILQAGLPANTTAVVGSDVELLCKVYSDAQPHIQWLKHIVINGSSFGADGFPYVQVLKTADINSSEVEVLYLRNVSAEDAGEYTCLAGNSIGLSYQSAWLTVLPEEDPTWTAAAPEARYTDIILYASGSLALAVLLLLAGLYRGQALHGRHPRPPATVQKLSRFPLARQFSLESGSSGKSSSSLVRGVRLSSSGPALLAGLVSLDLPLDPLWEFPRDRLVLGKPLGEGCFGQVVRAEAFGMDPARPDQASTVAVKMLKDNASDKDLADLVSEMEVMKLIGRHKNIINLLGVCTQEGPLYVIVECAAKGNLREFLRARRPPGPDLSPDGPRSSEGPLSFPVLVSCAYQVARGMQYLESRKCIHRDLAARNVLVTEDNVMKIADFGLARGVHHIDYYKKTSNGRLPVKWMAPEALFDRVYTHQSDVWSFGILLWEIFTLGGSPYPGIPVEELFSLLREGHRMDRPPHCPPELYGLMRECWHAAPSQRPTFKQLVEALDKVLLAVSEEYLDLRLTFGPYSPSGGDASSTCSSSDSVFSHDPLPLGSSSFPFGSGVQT

Tests used:
FGFR4-WT = FGFR4-WT (Homo sapiens (Human), UniProt P22455); assay: Omnia assay for potency assessment against FGFR4 enzyme; assay type: biochemical
Procedure: A 10× stock solution of FGFR4-WT (PR4380C), (from Invitrogen, Carlsbad, Calif.) corresponding to method a in Table 7, was prepared as described below. Alternatively, a 10× stock solution of FGFR4-WT (F01-11G), (SignalChem, Richmond, BC) corresponding to method b in Table 7, was prepared as described below. A solution of 1.4×ATP (AS001A) and 5× Tyr-Sox conjugated peptide substrate (KNZ3101) were prepared in 1× kinase reaction buffer consisting of 20 mM Tris, pH 7.5, 5 mM MgCl2, 1 mM EGTA, 5 mM β-glycerophosphate, 5% glycerol (10× stock, KB002A) and 0.2 mM DTT (DS001A). […] The serially diluted compounds were prepared on a Tecan EVO100. A second addition of 10 μl of Tyr-Sox FGFR4 substrate was added to each well and the kinase reactions were started with the addition of 35 μL of 1.4×ATP. The reactions were monitored every 71 seconds for 240 minutes at λex360/λem485 in a Synergy plate reader from BioTek (Winooski, Vt.).

pFGFR4 in Huh7 cells = pFGFR4 in Huh7 cells (Homo sapiens (Human), UniProt P22455); assay: FGFR4 signaling, Meso Scale assay (MSD), Method B, Huh7

| Compound | IC50 (FGFR4-WT) [µM] | EC50 (pFGFR4 in Huh7 cells) [µM] |
| --- | --- | --- |
| C=CC(=O)NC1CCCCC1Nc1ncc2c(n1)N(C)C(=O)N(c1c(Cl)c(OC)cc(OC)c1Cl)C2 (racemic) [Compound I-19] | 0.101 to 0.5 |  |
| C=CC(=O)Nc1ccccc1Nc1ncc2c(n1)N(C1CCN(CC)CC1)C(=O)N(c1cc(OC)cc(OC)c1)C2 [Compound I-80] |  | > 1 |
| C=CC(=O)Nc1ccccc1Nc1ncc2c(n1)N(C1CCNCC1)C(=O)N(c1cc(OC)cc(OC)c1)C2 [Compound I-81] |  | > 1 |
